This assay relates to Leishmania donovani. The conditions noted are these: MHOM/IN/80/Dd8, J774.A1, 3000 ug/mL.

As a reminder, the inhibition is the drop in the measured response relative to a control, in per cent. A high value points to a response far below the control.

Take Sodium Stibogluconate: the inhibition was found to be 86.8%.

The values are drawn from ChEMBL document CHEMBL1144176, “Synthesis and biological evaluation of indolyl bisphosphonates as anti-bone resorptive and anti-leishmanial agents” (Bioorg Med Chem, 2008).
